From PubChem
The list is not random: actives were taken first. Their share in the collection is about 0.91%.
hiPSC survival – enhancers of single-cell hiPSC survival, primary screen, ATPlite luminescence; 100% = ROCK inhibitor wells, 0% = DMSO; survival enhancement, % at 20 µM; 360,000 compounds, 0.044% hits; AID 602274, 2012; in the data active = survival enhancement above about 18%;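 also: cells exposed to compounds for 16 hours before the ATP read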
FN deposition inh – inhibitors of fibronectin matrix deposition, primary screen, AH1F cells, Alexa488-fibronectin fluorescence, plate reader. 350,000 compounds, 0.086% hits. inhibition, % at 12.6 µM. AH1F fibroblasts, overnight;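 active = mean inhibition across replicates of 30% or more, regardless of how many single replicates reach that level; inconclusive = mean under 30% yet at least half of replicates reach 30%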;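 also: positive control wells lacked labelled fibronectin entirely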
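Assay system: AH1F fibroblasts / Quantity: 10000 cells per well / Medium: DMEM plus 2% serum, read in PBS / Reagent: labelled fibronectin 24 nM / Dosing: single dose, pinned / Times: 1 h cell attachment, overnight exposure to compound and label / Signal: fluorescence, ex 485 nm, em 525 nm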
PGC1a acetyl inh – inhibitors of PGC1a acetylation signal, primary screen, cell-based, U2OS, AlphaScreen, inhibitor mode; AlphaScreen anti-acetyl-lysine; with virally co-expressed GCN5 acetyltransferase; inhibition, % at 15.6 µM; 350,000 compounds, 0.17% hits; AID 651687, 2012;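 active = every replicate shows inhibition of at least 40%; inconclusive = mean inhibition at least 40% but some replicate below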;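 also: 0% = neutral control wells and 100% = positive control wells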
C2C12 statin – suppressors of statin myotoxicity in C2C12 myotubes, primary screen, cell-based, single point, plate reader; AID 602340, 2012; C2C12 myotubes + simvastatin, ATP luminescence, 48 h; scaled: DMSO 0, geranylgeraniol control 100; rescue of ATP level, % at 7.49 µM; 330,000 compounds, 0.78% hits;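 active = mean ATP rescue above about 67%, or every replicate alone reaching that limit, limit read from the data, passing the limit was not always enough; inconclusive = no clear call, values can overlap the other calls; inactive = mean under the limit and some replicate under it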;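 also: myotubes were challenged with 10 µM simvastatin during compound exposure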
UUG fidelity – alters start codon recognition fidelity in yeast; S. cerevisiae UUG-firefly luciferase reporter, luminescence/redox ratio; activity score, % at 18.7 µM; hit rate 0.13% among 350,000;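 active = replicate mean at a twofold rise or more, about +100% in these data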;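 also: firefly luciferase made from a UUG start codon reports start codon fidelity; reporter light over untreated wells divided by growth signal over untreated wells; some hits fall short of that in this replicate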
Active calls of the source: *.

`CC(O)CNc1nc2ccccc2n1-c1ncnc2sc3c(c12)CCC3` (stereo unspecified) gave hiPSC survival -2, FN deposition inh -4, PGC1a acetyl inh -6, C2C12 statin 114* and UUG fidelity -12.
For CCC(=O)Oc1c(S(=O)(=O)c2ccc(C)cc2)c(C)nn1C(C)(C)C the results were hiPSC survival -2, PGC1a acetyl inh 9, C2C12 statin 106* and UUG fidelity 14.
COc1ccc(NC(=O)Nc2ccc3c(c2)[C@@H]2C[C@@H](CC(=O)NC4CCCCC4)O[C@@H](CO)[C@@H]2O3)cc1 was read as FN deposition inh -11, PGC1a acetyl inh -1 and C2C12 statin 9.
Screening Cc1ccc(/C=N/N2CCN(Cc3ccc(Cl)cc3)CC2)o1 returned hiPSC survival -2, PGC1a acetyl inh 4, C2C12 statin 81* and UUG fidelity -20.
Screening Clc1ccc(CN2CCN(/N=C/c3ccco3)CC2)cc1 returned hiPSC survival 1, FN deposition inh 1, PGC1a acetyl inh -2, C2C12 statin 5 and UUG fidelity -9.
Screening COc1ccc(/C=N/NC(=O)c2ccc(NC(=O)c3cccc([N+](=O)[O-])c3)cc2)c(OC)c1 returned hiPSC survival -2, FN deposition inh 2, PGC1a acetyl inh 97* and C2C12 statin 2.
For N#Cc1ccccc1N=C1CCCN1Cc1ccccc1 the results were hiPSC survival -2, PGC1a acetyl inh -1, C2C12 statin 11 and UUG fidelity -1.
`Cc1cc(C)c(N=C2CCCN2Cc2ccccc2)c(C#N)c1` gave hiPSC survival 6, PGC1a acetyl inh -18, C2C12 statin 84* and UUG fidelity -12.
CN1c2ccc(-c3ccccc3F)cc2[C@@H]2[C@@H](CCN2S(=O)(=O)c2ccc(F)cc2)[C@@H]1CO was read as FN deposition inh 4, PGC1a acetyl inh -6, C2C12 statin -21 and UUG fidelity -15.
`COc1cc2c(c(O)c1OC)C(=O)C(OC)CCC2` (stereo unspecified) gave hiPSC survival 9, PGC1a acetyl inh -4, C2C12 statin 89* and UUG fidelity -16.

By substructure: those above with a carbonyl joined to an NH by a bond outside any ring
COc1ccc(NC(=O)Nc2ccc3c(c2)[C@@H]2C[C@@H](CC(=O)NC4CCCCC4)O[C@@H](CO)[C@@H]2O3)cc1 was read as FN deposition inh -11, PGC1a acetyl inh -1 and C2C12 statin 9.
Screening COc1ccc(/C=N/NC(=O)c2ccc(NC(=O)c3cccc([N+](=O)[O-])c3)cc2)c(OC)c1 returned hiPSC survival -2, FN deposition inh 2, PGC1a acetyl inh 97* and C2C12 statin 2.

Remaining list, next part:
COc1cc2c(c(O)c1OC)-c1c(cc(OC)c(OC)c1OC)C[C@@H](C)[C@@H](C)C2 was read as hiPSC survival 0, FN deposition inh -49, PGC1a acetyl inh -5, C2C12 statin 13 and UUG fidelity -6.
C[C@@H]1CCCCO[C@@H](CN(C)Cc2ccc(C(F)(F)F)cc2)[C@@H](C)CN([C@@H](C)CO)C(=O)c2cc(NC(=O)CCC(F)(F)F)ccc2O1 was read as PGC1a acetyl inh 13, C2C12 statin 83* and UUG fidelity 12.
C[C@@H]1CCCCO[C@@H](CN(C)Cc2ccc(C(F)(F)F)cc2)[C@H](C)CN([C@@H](C)CO)C(=O)c2cc(NS(=O)(=O)c3cccs3)ccc2O1 was read as PGC1a acetyl inh -9, C2C12 statin 72* and UUG fidelity -4.
For C[C@@H]1CCCCO[C@H](CN(C)Cc2ccc(C(F)(F)F)cc2)[C@H](C)CN([C@H](C)CO)C(=O)c2cc(NS(=O)(=O)c3cccs3)ccc2O1 the results were PGC1a acetyl inh -13, C2C12 statin -60 and UUG fidelity 9.
Screening C[C@@H]1CCCCO[C@H](CN(C)Cc2ccc(C(F)(F)F)cc2)[C@@H](C)CN([C@H](C)CO)C(=O)c2cc(NC(=O)Cc3ccccc3)ccc2O1 returned PGC1a acetyl inh 14, C2C12 statin -6 and UUG fidelity -7.
For C[C@@H]1CN([C@H](C)CO)C(=O)c2cc(NC(=O)CCC(F)(F)F)ccc2O[C@@H](C)CCCCO[C@@H]1CN(C)Cc1ccc(C(F)(F)F)cc1 the results were PGC1a acetyl inh 1, C2C12 statin 125* and UUG fidelity 8.
For C[C@@H]1CCCCO[C@H](CN(C)Cc2ccc(C(F)(F)F)cc2)[C@H](C)CN([C@H](C)CO)C(=O)c2cc(NC(=O)Cc3ccccc3)ccc2O1 the results were FN deposition inh 4, PGC1a acetyl inh inconclusive, C2C12 statin 134* and UUG fidelity 5.
For C[C@H]1CN([C@@H](C)CO)C(=O)c2cc(NC(=O)CCN3CCOCC3)ccc2O[C@@H]1CN(C)Cc1ccc2c(c1)OCO2 the results were FN deposition inh 2, PGC1a acetyl inh 8, C2C12 statin -2 and UUG fidelity 5.
Screening CCC(=O)N1[C@H](CO)[C@H]2c3ccccc3N(S(=O)(=O)c3ccccc3F)C[C@H]21 returned PGC1a acetyl inh 5, C2C12 statin 22 and UUG fidelity -1.
`CCCNC(=O)N1CC2(C1)[C@@H](c1ccccc1)[C@@H](CO)N2C(=O)C1CCCCC1` gave FN deposition inh -4 and PGC1a acetyl inh 4.
`CCC(=O)N(C)C[C@H]1Oc2ncc(-c3ccc(C)cc3)cc2C(=O)N([C@H](C)CO)C[C@H]1C` gave FN deposition inh 3, PGC1a acetyl inh 2, C2C12 statin 15 and UUG fidelity -3.
`Cc1cc(C)n(-c2cccc(Cl)c2)c(=O)c1C#N` gave hiPSC survival 0, FN deposition inh 7, PGC1a acetyl inh -3, C2C12 statin 118* and UUG fidelity -1.
For Cc1ccc(-n2c(C)cc(C)c(C#N)c2=O)cc1C the results were hiPSC survival -1 and FN deposition inh -2.
Screening O=C(O)Cc1c(O)ccc2ccccc12 returned hiPSC survival -4, FN deposition inh -2, PGC1a acetyl inh 45, C2C12 statin 121* and UUG fidelity -16.
Screening CCCCCCSc1ccc([C@@H]2[C@H]3C(=O)N(C)C(=O)[C@H]3[C@]3(C(=O)OC)CCCCN23)cc1OC returned hiPSC survival 0, FN deposition inh 31*, PGC1a acetyl inh -2, C2C12 statin -5 and UUG fidelity 0.
For CCCCC(=O)Nc1ccc(NC(=O)c2cc(OC)c(OC)c(OC)c2)cn1 the results were hiPSC survival -3, FN deposition inh 1, PGC1a acetyl inh -8, C2C12 statin 82* and UUG fidelity -4.
O=C(C#Cc1ccccc1)Nc1cccc(F)c1 was read as hiPSC survival -1, FN deposition inh -4, C2C12 statin 159* and UUG fidelity -8.
CCCN1C[C@@H](C)[C@H](OC)CN(C)C(=O)c2cc(NC(=O)Nc3cccc(F)c3)ccc2OC[C@@H]1C was read as FN deposition inh 12, PGC1a acetyl inh -18 and C2C12 statin -58.
Cc1ccc(S(=O)(=O)N2CCCC(C(=O)NCc3ccccn3)C2)cc1 (stereo unspecified) was read as hiPSC survival 0, FN deposition inh -11, PGC1a acetyl inh -19, C2C12 statin 13 and UUG fidelity -23.

Arranged by molar mass (high to low): some entries from above
For Cc1ccc(-n2c(C)cc(C)c(C#N)c2=O)cc1C the results were hiPSC survival -1 and FN deposition inh -2.
O=C(C#Cc1ccccc1)Nc1cccc(F)c1 was read as hiPSC survival -1, FN deposition inh -4, C2C12 statin 159* and UUG fidelity -8.
Screening O=C(O)Cc1c(O)ccc2ccccc12 returned hiPSC survival -4, FN deposition inh -2, PGC1a acetyl inh 45, C2C12 statin 121* and UUG fidelity -16.
